Target: T1, human GDF-15 (Homo sapiens, UniProt Q99988)
T1 sequence (Q99988 with tags, fused parts or gaps limits assumed): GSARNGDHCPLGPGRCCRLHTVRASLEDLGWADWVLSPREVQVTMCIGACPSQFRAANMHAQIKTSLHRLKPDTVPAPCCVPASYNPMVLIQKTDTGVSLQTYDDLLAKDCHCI
Assay: Kd determination by Surface Acoustic Wave (SAW) gold chip biosensors
Type: binding
Details: murine B1-23 stabilized with 0.2% BSA, H1L5 as CHO supernatant
Text: Determination of Kd values of anti-GDF-15 antibodies. The Kd values of different anti-GDF-15 antibodies were compared using Surface Acoustic Wave (SAW) gold chip biosensors technology (SAW Instruments GmbH, Schwertberger Str. 16, D-53177 Bonn, Germany):
The murine antibody (B1-23) as well as the chimeric B1-23 antibody were present in purified form. The H1L5 humanized B1-23 antibody was a serum-free CHO cell culture supernatant.

Herceptin: control antibody in SAW Kd assay
Kd value (nM): No binding

Source: patent US11760795B2, “Monoclonal antibodies to growth and differentiation factor 15 (GDF-15), and uses thereof for treating cancer cachexia and cancer” (JULIUS-MAXIMILIANS-UNIVERSITÄT WÜRZBURG, priority 2014, dated 2023)
